A word on the Kd: it is the concentration at which binding is half-saturated.

Sequences of proteins named here, by UniProt entry; tags and fusion partners are left off. Residues count along the entry.
UniProt Q63380, 1-617: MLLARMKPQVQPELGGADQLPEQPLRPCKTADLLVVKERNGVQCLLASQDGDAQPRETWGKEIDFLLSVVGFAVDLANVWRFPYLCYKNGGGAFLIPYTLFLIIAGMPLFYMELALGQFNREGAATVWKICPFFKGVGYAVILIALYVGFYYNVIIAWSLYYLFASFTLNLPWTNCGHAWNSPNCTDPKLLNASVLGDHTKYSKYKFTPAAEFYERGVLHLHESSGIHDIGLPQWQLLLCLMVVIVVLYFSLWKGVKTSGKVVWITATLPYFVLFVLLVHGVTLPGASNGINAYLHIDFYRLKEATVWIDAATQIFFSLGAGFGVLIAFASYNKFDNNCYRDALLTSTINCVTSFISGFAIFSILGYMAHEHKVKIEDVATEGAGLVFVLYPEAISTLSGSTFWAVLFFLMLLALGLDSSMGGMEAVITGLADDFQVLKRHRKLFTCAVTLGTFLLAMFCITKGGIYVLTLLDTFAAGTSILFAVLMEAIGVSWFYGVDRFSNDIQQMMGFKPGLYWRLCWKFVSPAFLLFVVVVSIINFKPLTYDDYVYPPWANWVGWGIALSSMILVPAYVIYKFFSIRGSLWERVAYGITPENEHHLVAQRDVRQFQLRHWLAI
UniProt P31652, whole entry: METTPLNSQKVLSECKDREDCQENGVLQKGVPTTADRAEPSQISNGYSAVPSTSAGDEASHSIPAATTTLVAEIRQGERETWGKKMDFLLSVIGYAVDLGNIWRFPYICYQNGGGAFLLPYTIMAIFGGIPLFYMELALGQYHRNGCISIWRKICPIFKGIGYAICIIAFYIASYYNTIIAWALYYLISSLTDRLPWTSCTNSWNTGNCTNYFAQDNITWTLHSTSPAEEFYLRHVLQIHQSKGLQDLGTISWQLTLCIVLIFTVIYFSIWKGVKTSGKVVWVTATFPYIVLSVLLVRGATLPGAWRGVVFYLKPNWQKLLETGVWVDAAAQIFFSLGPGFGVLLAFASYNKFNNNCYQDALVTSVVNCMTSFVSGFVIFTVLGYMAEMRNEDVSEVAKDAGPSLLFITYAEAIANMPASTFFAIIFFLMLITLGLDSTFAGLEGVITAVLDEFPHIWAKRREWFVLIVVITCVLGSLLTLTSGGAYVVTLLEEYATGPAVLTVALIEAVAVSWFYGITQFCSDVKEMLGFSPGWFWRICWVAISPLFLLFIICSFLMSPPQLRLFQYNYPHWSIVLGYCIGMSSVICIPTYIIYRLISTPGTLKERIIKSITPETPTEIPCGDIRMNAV

The target in assay [1] is T1, noradrenalin reuptake sites (Rattus norvegicus, UniProt Q63380).
T1 construct: The membranes are prepared from rat frontal cortex; from tissue; host or cells: rat frontal cortex membranes
The experiment in a line: Determination of the affinity for noradrenalin reuptake sites ([3H]-nisoxetine competition). The note with it: used in the Cheng-Prusoff equation; read-out: dissociation constant (Kd) of the radioligand for the noradrenalin reuptake site. The assay is classed as binding. The method, then:
The radioactivity retained on the filters is determined by liquid scintillation counting. The binding isotherms are analysed by non-linear regression to determine the IC50 values. Those values are converted into a dissociation constant (Ki) using the Cheng-Prusoff equation: […]

The next assay addresses serotonin reuptake sites (Rattus norvegicus, UniProt P31652). The note with it: read-out: dissociation constant (Kd) of the radioligand for the serotonin reuptake site; used in the Cheng-Prusoff equation. As to the method:
The incubation buffer contains […] TRIS-HCl (pH 7.4), 120 mM NaCl and 5 mM KCl. Non-specific binding is determined using 10 μM citalopram. At the end of the incubation, the incubation medium is filtered and washed three times with 5 ml of cooled buffer. The radioactivity retained on the filters is determined by liquid scintillation counting. The binding isotherms are analysed by non-linear regression to determine the IC50 values. Those values are converted into a dissociation constant (Ki) using the Cheng-Prusoff equation: […]

Take `CNCCC(Oc1ccccc1OC)c1ccccc1` (centres unmarked) [[^3H]-nisoxetine]: the Kd in assay [1] stood at 1.23 nM.
Consider [^3H]-paroxetine, for which, at serotonin reuptake sites, the Kd came to 0.13 nM.

These data come from US6420413B2, “Heterocycloalkylbenzocyclobutane and heteroarylbenzocyclobutane compounds” (Les Laboratories Servier, priority 2000, dated 2002).
